Values of other authors as cited in US20220152045A1 (priority 2012, published 2022).
Some compounds may have been tested in ways that are not shown here.

Details: patients at the age of 65 or more; cited from earlier work

CCC(=O)N(c1ccccc1)C1(C(=O)OC)CCN(CCC(=O)OC)CC1
Decrease of clearance of remifentanil: 25%
